Literature values in US20260137644A1, “COMPOSITIONS INCLUDING CAFFEIC ACID PHENETHYL ESTER” (XMK THERAPEUTICS INC., priority 2022, published 2026).

Sequences of proteins named here, by UniProt entry; tags and fusion partners are left off. Residues count along the entry.
UniProt P35354, 18-604: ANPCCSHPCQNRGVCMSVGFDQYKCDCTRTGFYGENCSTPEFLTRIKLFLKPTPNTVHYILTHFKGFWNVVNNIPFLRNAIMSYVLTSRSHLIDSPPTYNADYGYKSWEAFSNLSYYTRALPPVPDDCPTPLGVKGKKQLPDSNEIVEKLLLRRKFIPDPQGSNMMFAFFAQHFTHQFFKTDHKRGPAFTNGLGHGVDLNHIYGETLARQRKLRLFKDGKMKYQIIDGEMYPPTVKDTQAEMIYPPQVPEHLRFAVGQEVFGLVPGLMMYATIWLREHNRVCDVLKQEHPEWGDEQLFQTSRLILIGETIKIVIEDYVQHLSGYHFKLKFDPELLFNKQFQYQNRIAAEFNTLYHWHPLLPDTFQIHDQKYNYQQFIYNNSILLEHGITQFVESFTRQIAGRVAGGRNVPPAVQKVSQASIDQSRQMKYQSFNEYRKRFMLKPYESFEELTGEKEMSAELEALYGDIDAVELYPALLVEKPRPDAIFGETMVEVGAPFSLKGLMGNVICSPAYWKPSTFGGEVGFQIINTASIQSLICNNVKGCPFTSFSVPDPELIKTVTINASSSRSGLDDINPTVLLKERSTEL
UniProt P23219, 24-599: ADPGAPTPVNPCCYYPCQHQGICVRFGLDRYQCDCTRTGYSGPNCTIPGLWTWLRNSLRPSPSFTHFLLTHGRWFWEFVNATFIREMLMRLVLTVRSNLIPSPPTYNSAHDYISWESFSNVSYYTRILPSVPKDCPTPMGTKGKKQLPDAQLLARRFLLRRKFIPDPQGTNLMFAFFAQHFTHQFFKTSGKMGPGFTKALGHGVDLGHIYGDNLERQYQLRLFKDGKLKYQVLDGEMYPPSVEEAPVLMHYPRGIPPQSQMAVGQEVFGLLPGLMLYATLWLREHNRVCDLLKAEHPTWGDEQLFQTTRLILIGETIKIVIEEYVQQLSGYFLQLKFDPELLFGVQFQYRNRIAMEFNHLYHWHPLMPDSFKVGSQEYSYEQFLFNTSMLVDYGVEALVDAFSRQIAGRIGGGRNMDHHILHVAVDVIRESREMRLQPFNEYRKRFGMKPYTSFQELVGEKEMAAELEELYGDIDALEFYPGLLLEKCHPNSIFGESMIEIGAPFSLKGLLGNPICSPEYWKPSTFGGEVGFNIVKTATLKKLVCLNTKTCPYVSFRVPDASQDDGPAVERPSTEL

How the values were obtained:
COX-2 = COX-2 (Homo sapiens, UniProt P35354)
COX-1 = COX-1 (Homo sapiens, UniProt P23219)

Q: Which COX-2 activity (COX-2) does the source give for `O=C(/C=C/c1ccc(O)c(O)c1)OCCc1ccccc1` [CAPE, 2-phenylethyl (E)-3-(3,4-dihydroxyphenyl)prop-2-enoate] here?
A: inhibits

Q: What about the COX-1 activity (COX-1) of the same molecule?
A: inhibits
